From US10881709B2, “Immune system modulators and compositions” (Canimguide Therapeutics AB, priority 2015, dated 2021)

Test system: K562 target cells
Test: NK-cell cytotoxicity (NKTEST, flow cytometry)
Format: cell-based, human
Conditions: 10 ug/ml peptide, effector:target 40:1, four donors
Description: The NK-cell cytotoxic activity of blood mononuclear cells from four healthy donors was tested. Mononuclear cells were separated by standard Ficoll-Paque® Plus (Pharmacia AB, Sweden) density gradient centrifugation from heparinized blood obtained from healthy donors. NK cell cytotoxic activity of the mononuclear cells was then tested using a commercial kit (NKTEST, Orpegen Pharma GmblI, Heidelberg, Germany) following the manufacturers protocol. Briefly, the kit contains cryopreserved, NK-sensitive target cells (K562) labeled with a lipophilic green fluorescent membrane dye, which enables discrimination of effector and target cells. After incubation with effector cells, killed target cells are identified by a DNA-stain, which penetrates and specifically stain the nuclei of dead target cells. This way the percentage of killed targets can be determined by flow cytometry. The mononuclear cells were preincubated for 30 min at 37° C. with the indicated peptides (peptides have been described previously) at 10 ug/ml. Target cells were then added, giving an effector:target ratio of 40:1, and the cell mixture incubated at 37° C. for 3-4 hours. Samples were analysed on a FACSCalibur (BD® Biosciences, San Jose, Calif.).

In the case of `CC[C@H](C)[C@H](NC(=O)[C@H](CC(C)C)NC(=O)[C@H](CC(N)=O)NC(=O)[C@H](CCC(N)=O)NC(=O)[C@@H]1CCCN1C(=O)[C@H](CCC(=O)O)NC(=O)[C@H](CCC(=O)O)NC(=O)[C@@H](NC(=O)[C@H](CC(C)C)NC(=O)[C@@H]1CCCN1C(=O)[C@H](CCCCN)NC(=O)[C@H](Cc1ccccc1)NC(=O)[C@H](CCC(=O)O)NC(=O)[C@H](CC(=O)O)NC(=O)[C@H](Cc1ccccc1)NC(=O)[C@@H](N)C(C)C)C(C)C)C(=O)N[C@@H](CCCCN)C(=O)O` [P3028], the “effect on NK-cell cytotoxicity (percent specific lysis of K562)” value is reported as “reduced the percent specific lysis”.
